Assay results taken from paper PMC4736438, “Cation–π Interactions Contribute to Substrate Recognition in γ‐Butyrobetaine Hydroxylase Catalysis” (Chemistry (Weinheim an Der Bergstrasse, Germany), 2015).

Amino acid sequences for entries named in this document (tags omitted).
UniProt P80193, whole entry: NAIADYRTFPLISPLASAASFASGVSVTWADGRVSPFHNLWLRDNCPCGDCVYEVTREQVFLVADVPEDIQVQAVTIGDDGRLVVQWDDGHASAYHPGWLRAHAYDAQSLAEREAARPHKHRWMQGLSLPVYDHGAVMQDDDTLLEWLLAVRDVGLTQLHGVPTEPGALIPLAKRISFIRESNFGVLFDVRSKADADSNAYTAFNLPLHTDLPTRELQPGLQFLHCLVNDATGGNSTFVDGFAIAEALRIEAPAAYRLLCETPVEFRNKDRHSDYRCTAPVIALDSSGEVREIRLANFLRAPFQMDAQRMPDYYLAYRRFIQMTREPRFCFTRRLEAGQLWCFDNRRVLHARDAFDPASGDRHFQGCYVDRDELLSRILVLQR

Assays:
psBBOX [1] = target: T1, psBBOX (Pseudomonas sp. AK-1, UniProt P80193); assay: 1H NMR (CPMG) protein titration; details: psBBOX-Zn(II)-2OG complex (Zn for Fe); […] Tris-D11 pH […] K; tested form: bromide
psBBOX [2] = target: T1, psBBOX; assay: LC-MS hydroxylation kinetics; type: biochemical; details: read-out: 2; […] psBBOX, […] FeSO4, […] 2OG, […] ascorbate, Tris pH […] K; tested form: bromide
Source text: LC-MS hydroxylation kinetics on psBBOX

For `C[P+](C)(C)CCCC(=O)O`, the Kd (psBBOX [1]) was 7 µM and the Km (psBBOX [2]) was 1200 µM.
